Data from ChEMBL document CHEMBL1201862, “PubChem BioAssay data set” (2004).

Protein sequences, listed by entry. Tags and fused reporters are not part of them. Lines headed by an entry give the natural chain unless they say otherwise; changes in a name come on top.
UniProt Q932Y6, whole entry: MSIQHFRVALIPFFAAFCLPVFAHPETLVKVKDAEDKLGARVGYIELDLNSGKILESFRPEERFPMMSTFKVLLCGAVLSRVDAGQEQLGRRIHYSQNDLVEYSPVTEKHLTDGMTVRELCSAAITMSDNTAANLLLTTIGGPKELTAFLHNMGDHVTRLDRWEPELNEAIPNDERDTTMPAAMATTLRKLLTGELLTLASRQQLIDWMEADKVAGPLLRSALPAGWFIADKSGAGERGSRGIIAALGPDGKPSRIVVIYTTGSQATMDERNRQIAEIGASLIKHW
UniProt P04406: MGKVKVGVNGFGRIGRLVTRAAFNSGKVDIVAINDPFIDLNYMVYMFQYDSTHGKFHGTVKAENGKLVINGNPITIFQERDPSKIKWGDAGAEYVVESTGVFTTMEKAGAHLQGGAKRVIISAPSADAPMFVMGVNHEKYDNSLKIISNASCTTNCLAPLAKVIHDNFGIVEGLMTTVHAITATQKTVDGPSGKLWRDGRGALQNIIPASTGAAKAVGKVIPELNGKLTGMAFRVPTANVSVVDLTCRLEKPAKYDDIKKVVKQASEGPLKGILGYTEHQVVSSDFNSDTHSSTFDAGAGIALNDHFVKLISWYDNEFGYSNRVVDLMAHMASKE

Assays:
Beta Lactamase = Beta Lactamase (Pseudomonas aeruginosa, UniProt Q932Y6); assay: BLA reporter interference, concentration series – BLA reporter cells, FRET fluorescence, artefact control for TLR9-MyD88 binding inhibitor project, dose response (AID 588341); format: cell-based;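 also: cell based assay in CHO-K1 cells stably expressing beta-lactamase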
[1] = target: Glyceraldehyde-3-phosphate dehydrogenase (Homo sapiens, UniProt P04406)
cells = format: functional

In the case of CCCCNc1ccc2c3c(cccc13)C(=O)N(CCCC)C2=O, the IC50 (Beta Lactamase) is reported as active: 3.07 µM.

In the case of COc1ccc(Br)cc1S(=O)(=O)Nc1cccnc1, the IC50 [1] is reported as > 100 µM (not active).

In the case of Cc1[nH]n(-c2ccccc2)c(=O)c1/C=N/c1ccc(S(=O)(=O)Nc2nccs2)cc1, the IC50 (cells) is reported as active: 11.3 µM.

Activity calls are given as the source filed them.
